In series [1] the test system is A375 doxorubicin-resistant (A375DR). As to the kind of experiment: Cytotoxicity on parental and doxorubicin-resistant cells. It counts as cell-based, human. The procedure: To examine the cytotoxicity of GrB/scFvMEL or MEL/sFv/rGel, melanoma cells were plated on 96-well plates at a density of 4×10^3 cells per well and allowed to adhere for 24 hr at 37° C. in 5% CO2. After 24 hr, the medium was replaced with medium that contained various concentrations of fusion proteins. […] The percent of control refers to the percentage of cells in the drug-treated wells compared to that of control (untreated) wells.
Expression of the gp240 antigen was assessed by ELISA using ZME-018 antibody specifically recognizing gp240 antigen.

In series [2] the test system is AsPc-1, Capan-1, Capan-2, and L3.6pl. The conditions noted are these: pancreatic cancer cell lines.

Regarding `COc1cccc2c1C(=O)c1c(O)c3c(c(O)c1C2=O)C[C@@](O)(C(=O)CO)C[C@@H]3O[C@H]1C[C@H](N)[C@H](O)[C@H](C)O1` [Doxorubicin], the “Resistance Index (I.C.50 on A375DR)/(I.C.50 on A375)” value in series [1] is reported as 400. The “cytotoxic effect of agent combined with scFv23/TNF” value in series [2] is reported as “antagonistic”.
For the compound `O=c1[nH]cc(F)c(=O)[nH]1` [5-Fluorouracil, 5-fluorouracil], in series [2], the “cytotoxic effect of agent combined with scFv23/TNF” value is given as “synergistic”.

The record behind these values is US20060263368A1, “Targeted chimeric molecules for cancer therapy” (Research Development Foundation, priority 2005, published 2006).
